# Measurements as given in ChEMBL document CHEMBL1240443, “A study of cytotoxicity of novel chlorokojic acid derivatives with their antimicrobial and antiviral activities” (Eur J Med Chem, 2010).
# System: Pseudomonas aeruginosa
# Settings: ATCC 10145
sequence,measurement,value
GENTAMICIN,MIC,0.5 µg/mL
